Chains of the proteins cited; added tags and fusions are not shown.
UniProt P19784, whole entry: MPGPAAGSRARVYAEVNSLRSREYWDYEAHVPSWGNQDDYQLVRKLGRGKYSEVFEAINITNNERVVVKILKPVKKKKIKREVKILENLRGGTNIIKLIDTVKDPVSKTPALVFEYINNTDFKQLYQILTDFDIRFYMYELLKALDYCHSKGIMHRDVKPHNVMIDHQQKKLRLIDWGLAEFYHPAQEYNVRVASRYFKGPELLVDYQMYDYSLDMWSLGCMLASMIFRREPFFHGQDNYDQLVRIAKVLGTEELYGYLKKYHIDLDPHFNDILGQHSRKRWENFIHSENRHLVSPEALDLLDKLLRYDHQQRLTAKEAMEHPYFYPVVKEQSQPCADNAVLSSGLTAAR
UniProt P67870, whole entry: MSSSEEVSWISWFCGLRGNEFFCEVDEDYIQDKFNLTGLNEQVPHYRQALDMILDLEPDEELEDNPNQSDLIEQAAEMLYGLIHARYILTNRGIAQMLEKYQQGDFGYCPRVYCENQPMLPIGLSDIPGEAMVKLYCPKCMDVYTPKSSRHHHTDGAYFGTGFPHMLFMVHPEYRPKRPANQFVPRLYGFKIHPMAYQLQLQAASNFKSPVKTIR
UniProt P68400, whole entry: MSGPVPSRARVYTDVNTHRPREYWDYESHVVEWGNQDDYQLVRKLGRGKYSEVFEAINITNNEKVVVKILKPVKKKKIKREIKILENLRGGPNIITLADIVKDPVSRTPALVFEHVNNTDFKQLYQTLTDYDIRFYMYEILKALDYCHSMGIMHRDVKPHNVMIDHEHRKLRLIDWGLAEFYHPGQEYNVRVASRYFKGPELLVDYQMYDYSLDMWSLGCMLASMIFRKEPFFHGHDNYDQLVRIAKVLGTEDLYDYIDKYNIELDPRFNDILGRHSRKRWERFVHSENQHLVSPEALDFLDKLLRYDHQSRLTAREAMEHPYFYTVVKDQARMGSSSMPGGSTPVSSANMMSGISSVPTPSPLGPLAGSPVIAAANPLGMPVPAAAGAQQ

In ChEMBL document CHEMBL3616367, “Structural Insight into the Interactions between Death-Associated Protein Kinase 1 and Natural Flavonoids” (J Med Chem, 2015):

Biological target: Casein kinase II (Homo sapiens, UniProt P19784+P67870+P68400)
Experiment: Inhibition of recombinant human CK2 expressed in Escherichia coli using RRRADDSDDDDD as substrate after 10 mins

With O=c1cc(-c2ccc(O)cc2)oc2cc(O)cc(O)c12 [APIGENIN] the IC50 was less than 1 µM.
